Experimental data from PMC8565515, “Dasabuvir Inhibits Human Norovirus Infection in Human Intestinal Enteroids” (mSphere, 2021).

Test system: GII.4 HuNoV
Assay: GII.4 HuNoV infection of HIE monolayers, viral genome equivalents by RT-qPCR
Type: cell-based, human norovirus
Conditions: compound 10 μM, n = 1, J2 HIE monolayers, 24 hpi, normalized to DMSO control

SMILES	(%) HuNoV GEs
COc1cc2ncnc(Nc3cccc(Cl)c3)c2cc1OC [AG-1478]	1.56%

Test system: J2 HIE monolayers
Assay: not given
Conditions: not given

SMILES	(%) Cytotoxicity
Cc1cccc(N2CCN(S(=O)(=O)c3ccc4c(c3)CCCN4C(=O)C3CCC3)CC2)c1C [G855-2047]	-2.02%
Cc1nn(CCC(=O)Nc2cccc(C#N)c2)c(C)c1S(=O)(=O)N1CCCCC1 [G402-0939]	1.01%

Same assay, conditions: human, 24 h, 10 μM

SMILES	(%) Cytotoxicity
CC1(C)S[C@@H]2[C@H](NC(=O)[C@H](NC(=O)N3CCNC3=O)c3ccccc3)C(=O)N2[C@H]1C(=O)O [Azlocillin sodium]	-1.98%
Cc1c(-c2cnccn2)ssc1=S [Oltipraz]	-4.37%
O=C(O)[C@H]1O[C@@H](Oc2cc3oc(-c4ccccc4)cc(=O)c3c(O)c2O)[C@H](O)[C@@H](O)[C@@H]1O [Baicalin]	1.68%
C[C@H](NC(=O)C(=O)Nc1ccccc1C(C)(C)C)C(=O)N[C@@H](CC(=O)O)C(=O)COc1c(F)c(F)cc(F)c1F [Emricasan]	1.13%

Test system: J2 HIE monolayers
Assay: Cytotoxicity by LDH assay in J2 HIE monolayers
Conditions: compound 10 μM, n = 1, LDH assay, J2 HIE monolayers infected with GII.4 HuNoV, 24 hpi, normalized to DMSO control

SMILES	(%) Cytotoxicity
CC(=O)Oc1c(C)c(C)c2c(c1C)CCC(C)(CCC[C@H](C)CCC[C@H](C)CCCC(C)C)O2 (stereo partly shown) [Vitamin E Acetate]	1.21%
NC(=O)c1ncn([C@@H]2O[C@H](CO)[C@@H](O)[C@H]2O)n1 [Ribavirin]	-0.09%
O=C(Nc1ccccc1)c1ccccc1O [Salicylanilide]	1.82%
C=C(C)[C@@H]1CC[C@]2(C(=O)O)CC[C@]3(C)[C@H](CC[C@@H]4[C@@]5(C)CC[C@H](O)C(C)(C)[C@@H]5CC[C@]43C)[C@@H]12 [Betulinic acid]	2.09%
NC(=O)N1CCC(CC(=O)N2CCC([C@H]3c4ncc(Br)cc4CCc4cc(Cl)cc(Br)c43)CC2)CC1 [Lonafarnib]	1.84%
Cc1cc(O)cc(C)c1Cl [Chloroxylenol]	1.68%
Cn1c(Cn2ccc(C(F)(F)F)c(Oc3cc(Cl)cc(C#N)c3)c2=O)n[nH]c1=O [Doravirine]	-1.39%
S=C(NCCc1ccccn1)Nc1ccc(Br)cn1 [Trovirdine]	-2.69%
C[C@@H]1CCO[C@H]2Cn3cc(C(=O)NCc4ccc(F)cc4F)c(=O)c(O)c3C(=O)N12 [Dolutegravir]	-1.39%
